In ChEMBL document CHEMBL4806967, “Heterocyclic kinase inhibitors and uses thereof” (2020) one finds t1/2 and IC50 data, which are given here for 1 molecule.

Sequences of proteins named here, by UniProt entry; tags and fusion partners are left off.
UniProt P11712, whole entry: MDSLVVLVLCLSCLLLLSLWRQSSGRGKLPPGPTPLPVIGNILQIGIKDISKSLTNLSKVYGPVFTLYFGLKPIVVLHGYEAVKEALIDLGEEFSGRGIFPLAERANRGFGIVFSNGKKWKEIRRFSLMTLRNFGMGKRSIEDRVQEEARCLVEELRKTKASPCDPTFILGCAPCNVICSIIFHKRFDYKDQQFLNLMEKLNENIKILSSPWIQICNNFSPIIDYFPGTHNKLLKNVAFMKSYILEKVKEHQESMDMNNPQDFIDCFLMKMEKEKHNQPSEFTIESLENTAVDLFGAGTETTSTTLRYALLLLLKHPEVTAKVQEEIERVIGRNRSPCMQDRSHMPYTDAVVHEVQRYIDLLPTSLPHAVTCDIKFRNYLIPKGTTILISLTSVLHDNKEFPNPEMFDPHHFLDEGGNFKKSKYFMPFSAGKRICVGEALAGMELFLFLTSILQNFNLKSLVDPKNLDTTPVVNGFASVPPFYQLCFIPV

For series [1] the following is noted: mouse, microsomes.
The next series concerns the target T1, Cytochrome P450 2A6 (Homo sapiens, UniProt P11509).
T1 sequence (P11509 whole entry): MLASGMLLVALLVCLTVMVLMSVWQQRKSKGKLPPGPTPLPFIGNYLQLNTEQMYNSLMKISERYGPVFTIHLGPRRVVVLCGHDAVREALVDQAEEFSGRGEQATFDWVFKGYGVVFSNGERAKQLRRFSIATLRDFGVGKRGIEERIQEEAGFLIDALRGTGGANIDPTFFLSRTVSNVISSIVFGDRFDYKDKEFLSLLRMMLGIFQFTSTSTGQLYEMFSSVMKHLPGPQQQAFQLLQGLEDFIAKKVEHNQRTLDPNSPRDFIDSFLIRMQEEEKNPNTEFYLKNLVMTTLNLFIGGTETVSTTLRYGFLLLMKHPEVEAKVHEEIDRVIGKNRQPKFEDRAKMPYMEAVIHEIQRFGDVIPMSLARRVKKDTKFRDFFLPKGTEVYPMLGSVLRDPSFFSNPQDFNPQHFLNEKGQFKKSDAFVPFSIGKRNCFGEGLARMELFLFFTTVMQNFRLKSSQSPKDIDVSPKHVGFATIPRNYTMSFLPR

For a further series, the target named is Cytochrome P450 2C9 (Homo sapiens, UniProt P11712).
The conditions of series [2]: human, microsomes.

With `Cc1nc(Nc2ncc(C(=O)Nc3c(C)cccc3Cl)s2)cc(N2CCN(CCO)CC2)n1.O` [DASATINIB], the t1/2 in series [1] is 18 min; in series [2] it was 10 min. In addition, the IC50 on Cytochrome P450 2A6 was 35 µM; against Cytochrome P450 2C9 it was 50 µM.

As a reminder, the IC50 is the concentration that inhibits the measured activity by half. A higher IC50 goes with weaker potency in that assay.
